Assay results reported in patent US7939510B2, “Di(uridine 5′-)tetraphosphate and salts thereof” (priority 1997, dated 2011).

Settings: battery of genetic toxicology assays

P^1,P^4-di(uridine 5′-)tetraphosphate, tetrasodium salt
genotoxicity: nongenotoxic
